Measured values published in paper PMC3928307, “Long-Term Activation upon Brief Exposure to Xanomleline Is Unique to M1 and M4 Subtypes of Muscarinic Acetylcholine Receptors” (PLoS ONE, 2014).

Amino acid sequences for entries named in this document (tags omitted).
UniProt P08172, whole entry: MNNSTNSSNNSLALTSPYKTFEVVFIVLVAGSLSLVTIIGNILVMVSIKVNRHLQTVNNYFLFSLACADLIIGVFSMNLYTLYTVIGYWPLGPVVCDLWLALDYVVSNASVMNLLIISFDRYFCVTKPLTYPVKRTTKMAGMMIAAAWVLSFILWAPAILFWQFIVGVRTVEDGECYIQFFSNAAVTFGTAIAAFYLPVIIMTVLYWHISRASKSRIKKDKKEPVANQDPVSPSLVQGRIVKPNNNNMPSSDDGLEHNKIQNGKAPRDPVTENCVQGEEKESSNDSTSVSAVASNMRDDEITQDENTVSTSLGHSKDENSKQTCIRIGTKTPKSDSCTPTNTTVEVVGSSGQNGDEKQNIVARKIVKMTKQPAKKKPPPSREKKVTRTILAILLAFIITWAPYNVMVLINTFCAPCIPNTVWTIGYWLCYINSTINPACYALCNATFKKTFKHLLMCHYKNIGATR

Biological target: T1, hM2 muscarinic receptor (Homo sapiens, UniProt P08172)
T1 construct: gene CHRM2; full-length receptor stably expressed in CHO cells; human G16 transiently co-transfected for calcium assay
Experiment: Fura-2 intracellular calcium microfluorometry, CHO cells
Format: cell-based

CCCCCCOc1nsnc1C1=CCCN(C)C1 [xanomeline, 3-hexoxy-4-(1-methyl-3,6-dihydro-2H-pyridin-5-yl)-1,2,5-thiadiazole]
EC50: 79.4 nM
